Values of other authors in US20070093969A1, “Molecular nephrotoxicology modeling” (priority 2002, published 2007).

Tested on: tubulin
Settings: cited from earlier work

## COc1cc2c(c(OC)c1OC)-c1ccc(OC)c(=O)cc1[C@@H](NC(C)=O)CC2 [colchicine, Colchicine]
  microtubule polymerization status: extensive microtubule depolymerization
  total tubulin levels: decreased twofold
